Amino acid sequences for entries named in this document (tags omitted).
UniProt P28482, whole entry: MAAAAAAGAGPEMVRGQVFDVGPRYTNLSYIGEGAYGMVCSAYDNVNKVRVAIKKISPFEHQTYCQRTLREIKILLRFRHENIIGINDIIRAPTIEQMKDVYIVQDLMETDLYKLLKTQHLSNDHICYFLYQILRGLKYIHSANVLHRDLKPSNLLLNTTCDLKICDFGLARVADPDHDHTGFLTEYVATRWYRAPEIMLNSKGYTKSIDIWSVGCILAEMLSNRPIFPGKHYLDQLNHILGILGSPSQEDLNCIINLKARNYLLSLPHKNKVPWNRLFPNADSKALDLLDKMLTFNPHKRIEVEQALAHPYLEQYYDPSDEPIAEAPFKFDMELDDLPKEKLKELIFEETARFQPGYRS

In ChEMBL document CHEMBL5726891, “Serine/threonine kinase inhibitors” (2019):

Biological target: Mitogen-activated protein kinase 1 (Homo sapiens, UniProt P28482)
Experiment: Test compounds were diluted in DMSO in 3-fold serial dilutions at 100× final concentrations. […] The data collected from each well was fit to a straight line, and the resulting rates were used to calculate percent of control. Percent of control was plotted against compound concentration, and IC50 values were determined using a four-parameter fit.

CN1C(=O)C[C@H](Cc2ccccc2)c2nnc3cc(-c4ccnc(Nc5ccnn5C)c4)cc1n23
IC50: 0.073 nM
